Sfp PPTase inh: blocks B. subtilis Sfp PPTase activity | Biochemical Sfp PPTase activity, qHTS | Q9F4F7 | Potency, µM, actives largely listed as inhibitors | 310,000 compounds, 3.5% hits | AID 1490;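 further: the enzyme is Sfp with the accession as filed and its product quenches rhodamine fluorescence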
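Step 1, compound plus 15 nM Sfp-PPTase, 15 min, room temperature. Step 2, add rhodamine-CoA (5 uM) and BHQ-2-YbbR (12.5 uM). Step 3, read 525/598 nm fluorescence at 0 and 30 min.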
ALDH1A1 inh: ALDH1A1 (human) enzyme inhibition; P00352; Purified ALDH1A1, NADH fluorescence, propionaldehyde substrate; Potency, µM (series often up to 75.3 µM), hits mostly inhibitors; 220,000 compounds, 7.3% hits; AID 1030; active means well fitted inhibition curve with a large enough effect, not every such curve was filed as active; inconclusive means small, poorly fitted or top-dose-only effect, or another doubt; inactive means no such curve, though single readings can be large or run the other way
LMNA splice mod: changes lamin A minigene splicing in HeLa cells. HeLa LMNA splicing GFP/RFP minigene ratio, 48 h. Potency, µM (doses to about 46.1 µM), usual class: inhibitors. 200,000 compounds, 0.01% hits; active means well fitted inhibition curve with a large enough effect in the signal ratio, with a control signal flat, not every such curve was filed as active; inconclusive means small, poorly fitted or top-dose-only effect, or effect the other way, or a change in a side signal; the % refers to the signal ratio
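S3 HeLa cells stably expressing lamin A-EGFP splicing minigene plus DsRed2, 600 cells/well, 48 h compound exposure at 37C. Laser-scanning cytometry; analysed as GFP (500-530 nm)/RFP (575-640 nm) total intensity ratio; 0.5% DMSO vehicle.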
miR-21 reporter: raises the signal of a miR-21 reporter | HeLa miR-21 FLuc reporter, luciferase, 48 h | Potency, µM (highest dose often 38.3 µM) | 340,000 tested, under 10 active | AID 2288; active = well fitted rising curve with a large enough effect; inconclusive = small, poorly fitted or top-dose-only effect; inactive = no such curve, though single readings can be large or run the other way;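 also: miR-21 action dims this reporter so a rising signal means less miR-21 action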
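HeLa cells endogenously expressing miR-21, stably carrying CMV-driven firefly luciferase with a downstream miR-21 binding site, 2000 cells/well. Titrations up to approximately 40 uM, 48 hours; luciferase luminescence read.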
KDM4E inh: blocks human JMJD2E demethylase activity; B2RXH2; JMJD2E catalytic domain, FDH-coupled NADH fluorescence (FDH is formaldehyde dehydrogenase); Potency, µM (highest dose often 57.1 µM), hits mostly inhibitors; 230,000 compounds, 1.6% hits; AID 2147; active means well fitted inhibition curve with a large enough effect, not every such curve was filed as active; inconclusive means small, poorly fitted or top-dose-only effect, or another doubt; inactive means no such curve, though single readings can be large or run the other way; further: nearly all actives have a fitted effect of over 50% in size
G9a inh: blocks human histone lysine methyltransferase G9a; Potency, µM (titrated, usually from 102 µM), most hits filed as inhibitors; G9a H3K9 monomethylation, AlphaScreen, 2 h; Q96KQ7; 350,000 compounds, 8.8% hits; AID 504332; further: nearly all actives have a fitted effect of over 75% in size
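Chemiluminescent proximity detection of H3K9 monomethylation, read after 10 min bead incubation in the dark. Reaction: 20 nM G9a, 500 nM biotin-H3K9 peptide, 20 uM SAM cofactor, 2 h, room temperature, following 15 min enzyme-compound preincubation.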
Hits are given with their value; - = inactive; ? = inconclusive; . = no result given; ! = not active in a repeat; [ ] = another dose, or the depositor's remark. This is a sample that favours compounds with a hit; in the whole collection about 13% have one here. Unless noted, the call rests on the fitted dose curve; in most records, active means well fitted curve in the direction sought with a large enough effect; inconclusive means small, poorly fitted or top-dose-only effect, or another doubt; inactive means no such curve, though single readings can be large; an effect the other way counts as inactive or inconclusive.

SMILES	Sfp PPTase inh	ALDH1A1 inh	LMNA splice mod	miR-21 reporter	KDM4E inh	G9a inh
C[C@@]12CC[C@H](O[C@@H]3O[C@H](CO)[C@@H](O)[C@H](O)[C@@H]3O)C[C@@H]1CC[C@H]1[C@H]2CC[C@@]2(C)[C@@H](C3=CCOC3=O)CC[C@]12O	.	-[13.5 µM]	.	.	.	.
Clc1ccccc1C(c1ccccc1)(c1ccccc1)n1cccn1	-	.	.	.	.	.
CCCCCn1c(NC(=O)c2ccco2)c(C(=O)OCC)c2nc3ccccc3nc21	?	?	?	-	?	50µM
COCCOC(=O)c1c(N)n(Cc2ccco2)c2nc3ccccc3nc12	56µM	-	?	-	?	-
CC(C)OC(=O)c1c(N)n(Cc2ccco2)c2nc3ccccc3nc12	50µM	?	?	-	-	3.5µM
CC(C)CNC(=O)c1c(N)n(Cc2ccco2)c2nc3ccccc3nc12	32µM	?	-	-	?	45µM
COCCNC(=O)c1c(NC(=O)c2ccc(Br)o2)n(Cc2ccccc2)c2nc3ccccc3nc12	28µM	?	?	-	?	?
Nc1c(C(=O)NCC2CCCO2)c2nc3ccccc3nc2n1Cc1ccco1 (stereo unspecified)	4µM	.	.	-	-	-[12.7 µM]
COCCCNC(=O)c1c(N)n(Cc2ccco2)c2nc3ccccc3nc12	13µM	.	.	-	?	-[12.7 µM]
CCCNC(=O)c1c(N)n(Cc2ccco2)c2nc3ccccc3nc12	?	?	-	-	?	?
C[C@@]12CC3CC(N)(C1)C[C@@](C)(C3)C2	-	-	-	.	-	-[21.5 µM]
CCC1/C=C/C=CCC(C)C(O)[C@@](C)(O)C(=O)C(C)C(O)C(C)C(=O)C(C)C(O)C(C)C=CC(=O)O[C@H]2C(C)C(CC1)O[C@]1(CCC(C)C(CC(C)O)O1)C2C (stereo partly specified)	-	-	?	.	-	.
CC(C)(C)C(=O)OCC(=O)C1CCC2C3CCC4=CC(=O)CCC4(C)C3CCC12C (stereo unspecified)	-	-	?	.	.	-
CN(C(=O)CSc1nc2ccc(NC(=O)COc3ccc(Cl)cc3)cc2s1)c1ccccc1	.	.	-	?	.	-
CC(OC(=O)COc1ccc(Nc2ccccc2)cc1)C(=O)N(C)c1ccccc1 (stereo unspecified)	.	.	.	.	.	40µM
CC[C@H]1C2CC3[C@@H]4N(C)c5ccccc5[C@]45C[C@@H](C2[C@H]5O)N3[C@@H]1O (stereo partly specified)	-	-	.	.	-	.
NC(N)=NC(=O)c1nc(Cl)c(N)nc1N	-	-	?	-	?	34µM!
CCOCCSc1nc2c(c(-c3cccs3)c1C#N)CC/C2=C/c1cccs1	35µM	?	-	-	-	28µM
NCCNC[C@@H](N)CCCN=C(N)N[N+](=O)[O-]	-	.	.	.	.	.
Cc1ccc(C)c(Cn2c(C(=O)O)c(C=O)c3ccccc32)c1	-	19µM	-	-	-	?
CC1CCN(C(=O)CCl)CC1	-	0.35µM	-	-	-	-
COc1ccc(C2=C(C(C)=O)Sc3nnc(-c4ccc(C)cc4)n3N2C(C)=O)cc1OC	.	.	?	-	.	-
CCn1ccnc1CN1CCCC(C(=O)c2cc(F)ccc2OC)C1 (stereo unspecified)	?	-	-	-	?	7.1µM
CCn1ccnc1CN1CCCC(C(=O)c2ccc(OC)cc2OC)C1 (stereo unspecified)	-	-	.	-	-	-
COc1ccc(CC(=O)Nc2ccc3c(C(F)(F)F)cc(=O)oc3c2)cc1OC	-	7.9µM	-	-	-	-
SMILES	Sfp PPTase inh	ALDH1A1 inh	LMNA splice mod	miR-21 reporter	KDM4E inh	G9a inh
CCCCN1C(=O)NC(=O)/C(=C/c2cnc(SC)nc2)C1=O	25µM	-	-	-	25µM	10µM
CSc1ncc(/C=C2/C(=O)NC(=O)N(C)C2=O)cn1	-	-	-	-	25µM	.
COc1ccc(C(=O)NCCn2cc(SCc3ccc(C(F)(F)F)cc3)c3ccccc32)cc1OC	.	.	.	?	.	-
C=CCn1c(CSc2ccccc2[N+](=O)[O-])n[nH]c1=S	?	.	.	-	.	1.3µM
O=C(Nc1cccc(F)c1)N1CCCC2(CCN(C(=O)Oc3ccccc3)CC2)C1	-	-	.	.	.	-[12.7 µM]
O=C(N/N=C\C1C(=O)NC(=S)N(c2ccccc2)C1=O)c1ccc(O)cc1 (stereo unspecified)	-	10µM	.	-	?	8.9µM
O=C(N/N=C/c1c(O)n(-c2ccccc2)c(=O)[nH]c1=O)c1ccncc1	-	?	-	-	?	-
COc1ccc(Nc2c(-c3cc(Br)ccc3O)nc3ncccn23)cc1OC	.	.	.	-	.	10µM
Cc1ccc2c(c1)C(=O)CC1(CCC(C(C)(C)C)CC1)O2 (stereo unspecified)	-	.	.	-	-	-
CN1CCC(O)(c2cccs2)C(C(=O)c2cccs2)C1 (stereo unspecified)	-	.	.	-	.	25µM
OC1(c2ccc(Cl)cc2)CCN(Cc2c[nH]c3ccccc23)CC1	-	-	?	.	-	-
CCSc1nnc([C@@H](N)Cc2ccccc2)o1	-	15µM	-	-	-	?
CSc1nnc([C@@H](N)Cc2c[nH]c3ccccc23)o1	-	-	.	-	4.5µM	-
CCSc1nnc([C@@H](N)Cc2c[nH]c3ccccc23)o1	-	?	-	-	?	-
CCSc1nnc(C(N)Cc2ccccc2)o1 (stereo unspecified)	-	?	-	-	-	-[12.7 µM]
COC(=O)[C@H]1C(=O)c2ccccc2O[C@@](C(=O)OC)(c2ccccc2)[C@@H]1c1ccccc1	-	-[13.5 µM]	.	.	.	.
CC1=C(C(=O)O)N2C(=O)[C@@H](NC(=O)CCCC(=O)O)[C@H]2SC1	5µM	-	.	-	-	-
CC(=O)OCC1=C(C(=O)[O-])N2C(=O)[C@@H](NC(=O)CCC[C@@H](N)C(=O)[O-])[C@H]2SC1.[Zn+2]	.	-	?	.	28µM	-[12.7 µM]
CCCCC(=O)Nc1c(C(=O)N2CCN(c3ccccc3F)CC2)oc2ccccc12	.	.	.	-	.	?
O=C(Cl)/C=C/C(=O)Cl	.	-	.	.	.	.
NC(Cn1ccc(=O)c(O)c1)C(=O)O (stereo unspecified)	-	-	.	.	?	-[2.33 µM]
O=C(Nc1ccc(Cl)c(C(F)(F)F)c1)c1ccc2c(c1)CCN2S(=O)(=O)c1ccccc1	.	.	.	?	.	-
COC1CCCCC1NCCc1ccccc1 (stereo unspecified)	-	?	.	-	16µM	?
COc1ccc(CCNC2CCCCCC2)cc1	-	.	.	-	.	.
CC(=O)NS(=O)(=O)c1ccc(NC(=O)c2cccn(Cc3ccc(Cl)cc3)c2=O)cc1	.	.	-	-	.	-
CC(Nc1cc(C)cc(C)c1)=[N+](C)CCNS(=O)(=O)c1ccc(Cl)cc1	-	.	.	-	.	8.9µM
CCn1c(-c2nn(-c3ccccc3)ccc2=O)n[nH]c1=S	56µM	-	-[9.22 µM]	-	-	-

From PubChem
